CycPeptMPDB entries from one study

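Lipid, pH, incubation time, direction and concentration are not recorded in the data file. Other peptides of the study may be missing here. Peptides that the database sets to -10, its floor, are left out.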

PAMPA is the parallel artificial membrane permeability assay, which has no cells and reads passive diffusion.
Permeability is in 10^-6 cm/s, converted from the database's log10 values; higher is more permeable.

CCCCCN1CC(=O)N(C)[C@H](CC(C)C)C(=O)N[C@@H](CCCC)C(=O)N2CCC[C@H]2C(=O)N(CCCOC(C)C)CC(=O)N[C@H](C)C1=O has PAMPA 1.9 × 10^-6 cm/s.
CCCCCN1CC(=O)N[C@H](CC(C)C)C(=O)N[C@@H](CCCC)C(=O)N2CCC[C@H]2C(=O)N(CCCOC(C)C)CC(=O)N[C@@H](C)C1=O has PAMPA 2.6 × 10^-6 cm/s.
CCCC[C@@H]1NC(=O)[C@@H](CC(C)C)N(C)C(=O)CN(CC2CCCCC2)C(=O)[C@@H](Cc2ccccc2)NC(=O)CN(CCCOC(C)C)C(=O)[C@H]2CCCN2C1=O has PAMPA 3.3 × 10^-6 cm/s.
CCCCCN1CC(=O)N[C@@H](CC(C)C)C(=O)N[C@@H](CCCC)C(=O)N2CCC[C@H]2C(=O)N(CC)CC(=O)N[C@@H](C)C1=O has PAMPA 0.17 × 10^-6 cm/s.
CCCC[C@@H]1NC(=O)[C@H](CC(C)C)NC(=O)CN(CC2CCCCC2)C(=O)[C@@H](Cc2ccccc2)NC(=O)CN(CC)C(=O)[C@H]2CCCN2C1=O has PAMPA 5 × 10^-6 cm/s.
CCCCCN1CC(=O)N(C)[C@@H](CC(C)C)C(=O)N[C@@H](CCCC)C(=O)N2CCC[C@H]2C(=O)N(CC)CC(=O)N[C@H](C)C1=O has PAMPA 1.7 × 10^-6 cm/s.
CCCCCN1CC(=O)N(C)[C@H](CC(C)C)C(=O)N[C@@H](CCCC)C(=O)N2CCC[C@H]2C(=O)N(CC)CC(=O)N[C@H](C)C1=O has PAMPA 0.55 × 10^-6 cm/s.
CCCC[C@@H]1NC(=O)[C@H](CC(C)C)N(C)C(=O)CN(CC2CCOCC2)C(=O)[C@@H](Cc2ccccc2)NC(=O)CN(Cc2ccc3c(c2)OCO3)C(=O)[C@H]2CCCN2C1=O has PAMPA 0.54 × 10^-6 cm/s.
CCCC[C@@H]1NC(=O)[C@@H](CC(C)C)NC(=O)CN(CC2CCCCC2)C(=O)[C@@H](C)NC(=O)CN(CCCOC(C)C)C(=O)[C@@H]2CCCN2C1=O has PAMPA 1.5 × 10^-6 cm/s.
CCCC[C@@H]1NC(=O)[C@H](CC(C)C)N(C)C(=O)CN(CC2CCCCC2)C(=O)[C@H](C)NC(=O)CN(Cc2ccc3c(c2)OCO3)C(=O)[C@H]2CCCN2C1=O has PAMPA 5.6 × 10^-6 cm/s.
CCCC[C@@H]1NC(=O)[C@@H](CC(C)C)NC(=O)CN(CC2CCCCC2)C(=O)[C@H](C)NC(=O)CN(CCCOC(C)C)C(=O)[C@H]2CCCN2C1=O has PAMPA 9.5 × 10^-6 cm/s.
CCCCCN1CC(=O)N[C@H](CC(C)C)C(=O)N[C@@H](CCCC)C(=O)N2CCC[C@@H]2C(=O)N(Cc2ccc3c(c2)OCO3)CC(=O)N[C@H](C)C1=O has PAMPA 4.9 × 10^-6 cm/s.
CCCCCN1CC(=O)N[C@@H](CC(C)C)C(=O)N[C@@H](CCCC)C(=O)N2CCC[C@@H]2C(=O)N(Cc2ccc3c(c2)OCO3)CC(=O)N[C@@H](Cc2ccccc2)C1=O has PAMPA 5.8 × 10^-6 cm/s.
CCCC[C@@H]1NC(=O)[C@@H](CC(C)C)N(C)C(=O)CN(CC2CCCCC2)C(=O)[C@H](C)NC(=O)CN(CCCOC(C)C)C(=O)[C@@H]2CCCN2C1=O has PAMPA 15 × 10^-6 cm/s.
CCCC[C@@H]1NC(=O)[C@@H](CC(C)C)N(C)C(=O)CN(CC2CCOCC2)C(=O)[C@H](Cc2ccccc2)NC(=O)CN(Cc2ccc3c(c2)OCO3)C(=O)[C@@H]2CCCN2C1=O has PAMPA 10 × 10^-6 cm/s.
CCCCCN1CC(=O)N[C@H](CC(C)C)C(=O)N[C@@H](CCCC)C(=O)N2CCC[C@H]2C(=O)N(CCCOC(C)C)CC(=O)N[C@@H](Cc2ccccc2)C1=O has PAMPA 11 × 10^-6 cm/s.
CCCC[C@@H]1NC(=O)[C@H](CC(C)C)N(C)C(=O)CN(CC2CCCCC2)C(=O)[C@@H](C)NC(=O)CN(Cc2ccc3c(c2)OCO3)C(=O)[C@@H]2CCCN2C1=O has PAMPA 8.1 × 10^-6 cm/s.
CCCC[C@@H]1NC(=O)[C@@H](CC(C)C)N(C)C(=O)CN(CC2CCCCC2)C(=O)[C@@H](Cc2ccccc2)NC(=O)CN(Cc2ccc3c(c2)OCO3)C(=O)[C@@H]2CCCN2C1=O has PAMPA 1.1 × 10^-6 cm/s.

Collected by the curators of CycPeptMPDB (Li et al. 2023) from Furukawa et al. 2016, doi:10.1021/acs.jmedchem.6b01246.